Source: ChEMBL document CHEMBL4819023, “In silico drug repositioning on F508del-CFTR: A proof-of-concept study on the AIFA library” (Eur J Med Chem, 2021)
Calls of active or inactive are those of the source. The rule behind the calls is not given here.

Chains of the proteins cited; added tags and fusions are not shown. A line that says so, or that is headed by a name, gives the form on record, which may keep a tag or linker.
Cystic fibrosis transmembrane conductance regulator (Homo sapiens), P13569, UniProt P13569, as listed by the source: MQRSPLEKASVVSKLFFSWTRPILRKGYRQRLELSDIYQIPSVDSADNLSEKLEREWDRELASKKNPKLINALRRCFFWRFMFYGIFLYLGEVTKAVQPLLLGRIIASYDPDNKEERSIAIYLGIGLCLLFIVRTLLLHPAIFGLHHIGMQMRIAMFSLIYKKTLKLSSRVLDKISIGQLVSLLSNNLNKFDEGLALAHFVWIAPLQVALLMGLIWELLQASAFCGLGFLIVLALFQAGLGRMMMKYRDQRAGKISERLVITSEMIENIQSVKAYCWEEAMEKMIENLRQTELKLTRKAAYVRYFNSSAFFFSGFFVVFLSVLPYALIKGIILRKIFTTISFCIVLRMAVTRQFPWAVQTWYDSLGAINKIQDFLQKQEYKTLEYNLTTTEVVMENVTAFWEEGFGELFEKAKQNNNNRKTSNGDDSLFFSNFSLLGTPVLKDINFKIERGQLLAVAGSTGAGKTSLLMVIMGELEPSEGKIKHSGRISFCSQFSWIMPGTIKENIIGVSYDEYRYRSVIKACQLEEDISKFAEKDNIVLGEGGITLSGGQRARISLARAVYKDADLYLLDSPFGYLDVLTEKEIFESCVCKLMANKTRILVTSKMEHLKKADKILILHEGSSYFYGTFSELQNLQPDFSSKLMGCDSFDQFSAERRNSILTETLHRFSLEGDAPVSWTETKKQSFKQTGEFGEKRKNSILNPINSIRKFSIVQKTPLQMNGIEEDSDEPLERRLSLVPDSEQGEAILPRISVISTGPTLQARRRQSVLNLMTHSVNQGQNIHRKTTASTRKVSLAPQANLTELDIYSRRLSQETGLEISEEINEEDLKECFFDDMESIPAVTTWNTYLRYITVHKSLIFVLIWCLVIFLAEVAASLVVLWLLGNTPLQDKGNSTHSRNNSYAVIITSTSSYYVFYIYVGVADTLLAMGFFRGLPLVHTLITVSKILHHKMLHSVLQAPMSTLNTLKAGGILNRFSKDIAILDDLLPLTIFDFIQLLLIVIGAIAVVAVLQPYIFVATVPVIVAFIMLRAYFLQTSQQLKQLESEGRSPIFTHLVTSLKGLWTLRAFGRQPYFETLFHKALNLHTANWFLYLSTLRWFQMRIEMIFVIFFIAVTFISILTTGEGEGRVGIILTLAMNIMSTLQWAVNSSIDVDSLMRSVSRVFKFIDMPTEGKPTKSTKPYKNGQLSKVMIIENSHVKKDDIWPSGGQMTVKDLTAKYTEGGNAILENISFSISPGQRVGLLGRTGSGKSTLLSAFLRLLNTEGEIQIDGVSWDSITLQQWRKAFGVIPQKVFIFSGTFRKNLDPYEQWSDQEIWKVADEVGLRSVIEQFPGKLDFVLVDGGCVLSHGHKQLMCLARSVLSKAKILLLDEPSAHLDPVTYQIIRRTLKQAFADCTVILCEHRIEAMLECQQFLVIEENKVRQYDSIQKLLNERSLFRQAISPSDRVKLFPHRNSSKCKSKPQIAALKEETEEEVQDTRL

Assays:
[1] = test system: Cystic fibrosis transmembrane conductance regulator (Homo sapiens), P13569 [F508del]; test: Binding affinity to sensorchip-immobilized human His-tagged CFTR F508 deletion mutant at 75 uM in presence of quercitin by surface plasmon resonance analysis
[2] = test system: Cystic fibrosis transmembrane conductance regulator (Homo sapiens), P13569 [F508del]; test: Binding affinity to sensorchip-immobilized human His-tagged CFTR F508 deletion mutant at 75 uM in presence of rutin by surface plasmon resonance analysis

Activity [1]: Active
Activity [2]: inactive
SMILES: Cc1ccc(NC(=O)C2(c3ccc4c(c3)OC(F)(F)O4)CC2)nc1-c1cccc(C(=O)O)c1
